# In all, about 390,000 compounds went through this assay and about 820 (0.21%) were called active. These results got no clear call from the source, so the numbers are uncertain. Calls follow the shape of the dose curve; as a rule, active = well fitted inhibition curve with a large enough effect; inconclusive = small, poorly fitted or top-dose-only effect, or another doubt; inactive = no such curve, though single readings can be large or run the other way.
# The chains behind the UniProt entries cited, without tags or fusion partners.
# UniProt Q92830, whole entry, looked up: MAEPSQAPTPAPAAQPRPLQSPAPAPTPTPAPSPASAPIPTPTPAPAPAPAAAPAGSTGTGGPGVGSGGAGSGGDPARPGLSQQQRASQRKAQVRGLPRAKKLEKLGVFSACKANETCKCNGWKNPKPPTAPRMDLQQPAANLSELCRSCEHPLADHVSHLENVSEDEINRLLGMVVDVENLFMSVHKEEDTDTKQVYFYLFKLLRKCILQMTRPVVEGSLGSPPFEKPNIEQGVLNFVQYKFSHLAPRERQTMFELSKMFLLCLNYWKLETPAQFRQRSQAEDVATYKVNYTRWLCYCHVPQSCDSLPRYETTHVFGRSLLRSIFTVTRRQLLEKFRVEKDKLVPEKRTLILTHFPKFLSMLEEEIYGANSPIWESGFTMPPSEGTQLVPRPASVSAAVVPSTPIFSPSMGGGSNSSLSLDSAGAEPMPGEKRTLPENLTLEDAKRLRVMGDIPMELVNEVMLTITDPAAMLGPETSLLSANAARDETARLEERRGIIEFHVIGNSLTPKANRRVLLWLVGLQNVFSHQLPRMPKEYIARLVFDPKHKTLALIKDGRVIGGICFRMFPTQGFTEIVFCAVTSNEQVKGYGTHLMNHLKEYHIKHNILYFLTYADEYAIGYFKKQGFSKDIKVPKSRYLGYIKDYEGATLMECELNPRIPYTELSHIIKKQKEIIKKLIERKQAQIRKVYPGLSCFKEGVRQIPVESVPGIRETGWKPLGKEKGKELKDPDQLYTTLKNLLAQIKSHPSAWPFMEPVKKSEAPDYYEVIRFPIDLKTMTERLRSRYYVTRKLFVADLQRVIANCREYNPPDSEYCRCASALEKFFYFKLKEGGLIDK
# Biological target: Histone acetyltransferase KAT2A (Homo sapiens) (UniProt Q92830)
# Experiment: qHTS Assay for Inhibitors of GCN5L2
# Details: GCN5L2 HAT assay, ThioGlo1 CoA-SH fluorescence
# Potency is read from the fitted curve at half-maximal effect.
row,Compound,Potency
1,O=C(O)COc1ccc([As](=O)(O)O)cc1[N+](=O)[O-],inconclusive: 8.91 µM
2,CC(C)CC(=O)NC(Sc1ccc(Cl)cc1)C(Cl)(Cl)Cl (stereo not drawn),inconclusive: 39.8 µM
3,O=c1c2cc([N+](=O)[O-])ccc2[nH]c2c([N+](=O)[O-])cc([N+](=O)[O-])cc12,inconclusive: 7.08 µM

# From PubChem BioAssay AID504327 (National Center for Advancing Translational Sciences (NCATS), 2011)
